Biological target: 5-HT1b receptor (Homo sapiens, UniProt P28222)
Experiment: Radioligand binding competition assay with 3H-5-CT
Settings: derived from IC50 using Cheng-Prusoff equation
Excerpt: The Ki values were derived from IC50 values using Cheng-Prusoff equation.

Chains of the proteins cited; added tags and fusions are not shown.
UniProt P28222, whole entry: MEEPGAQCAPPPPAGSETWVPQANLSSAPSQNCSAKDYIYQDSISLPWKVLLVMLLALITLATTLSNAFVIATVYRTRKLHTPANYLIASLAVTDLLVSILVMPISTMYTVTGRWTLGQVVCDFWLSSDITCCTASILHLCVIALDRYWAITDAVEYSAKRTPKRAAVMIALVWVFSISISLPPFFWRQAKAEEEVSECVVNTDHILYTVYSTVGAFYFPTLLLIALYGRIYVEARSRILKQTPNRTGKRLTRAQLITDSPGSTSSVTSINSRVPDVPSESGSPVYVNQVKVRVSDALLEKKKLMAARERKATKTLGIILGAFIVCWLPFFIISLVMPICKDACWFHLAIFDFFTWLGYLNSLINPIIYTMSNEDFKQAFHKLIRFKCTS

Ki: 3.36 nM
Structure (SMILES): CN[C@@H]1CCc2[nH]c3ccc(C(N)=O)cc3c2C1 [Frovatriptan, frovatriptan]
